Experimental data published in ChEMBL document CHEMBL1138606, “The discovery of tropane derivatives as nociceptin receptor ligands for the management of cough and anxiety” (Bioorg Med Chem Lett, 2009).
pEC50, pKi: −log10 of the molar value.

Protein sequences, listed by entry. Tags and fused reporters are not part of them. Lines headed by an entry give the natural chain unless they say otherwise; changes in a name come on top.
UniProt P41146: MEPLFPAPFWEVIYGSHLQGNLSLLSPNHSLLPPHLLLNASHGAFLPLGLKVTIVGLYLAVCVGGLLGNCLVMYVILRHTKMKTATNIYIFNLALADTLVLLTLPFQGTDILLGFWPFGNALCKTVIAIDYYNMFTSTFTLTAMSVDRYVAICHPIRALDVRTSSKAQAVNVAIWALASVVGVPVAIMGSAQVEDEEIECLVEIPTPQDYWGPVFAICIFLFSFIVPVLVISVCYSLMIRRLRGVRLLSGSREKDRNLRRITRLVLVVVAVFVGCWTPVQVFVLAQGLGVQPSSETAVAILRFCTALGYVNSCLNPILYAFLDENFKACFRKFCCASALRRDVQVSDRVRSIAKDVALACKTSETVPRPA
UniProt P41145: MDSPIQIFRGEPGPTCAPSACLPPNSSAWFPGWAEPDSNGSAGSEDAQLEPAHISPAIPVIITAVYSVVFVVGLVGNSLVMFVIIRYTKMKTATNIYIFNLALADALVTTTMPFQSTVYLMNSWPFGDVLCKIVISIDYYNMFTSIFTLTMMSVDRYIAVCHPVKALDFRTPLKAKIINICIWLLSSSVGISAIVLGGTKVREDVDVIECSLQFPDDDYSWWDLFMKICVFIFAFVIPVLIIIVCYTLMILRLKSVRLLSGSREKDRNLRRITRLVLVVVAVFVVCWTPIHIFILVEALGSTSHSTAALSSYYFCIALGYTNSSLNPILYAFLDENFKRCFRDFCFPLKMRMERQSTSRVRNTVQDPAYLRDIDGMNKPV
UniProt P41143, whole entry, looked up: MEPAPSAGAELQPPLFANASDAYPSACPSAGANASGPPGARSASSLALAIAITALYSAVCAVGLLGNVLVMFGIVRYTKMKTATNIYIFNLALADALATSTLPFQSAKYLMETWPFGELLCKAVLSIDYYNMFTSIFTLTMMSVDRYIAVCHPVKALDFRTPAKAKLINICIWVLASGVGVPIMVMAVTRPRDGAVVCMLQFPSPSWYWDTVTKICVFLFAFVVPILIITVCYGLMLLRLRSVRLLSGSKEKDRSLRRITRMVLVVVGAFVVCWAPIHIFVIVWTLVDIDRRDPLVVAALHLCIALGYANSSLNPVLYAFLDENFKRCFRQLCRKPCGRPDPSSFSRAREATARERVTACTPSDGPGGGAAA

Experiments:
Nociceptin receptor [1] = target: T1, Nociceptin receptor (Homo sapiens, UniProt P41146); test: Agonist activity at human NOP assessed as stimulation of GDP-induced [35S]GTPgammaS binding
[2] = target: Kappa-type opioid receptor (Homo sapiens, UniProt P41145); details: cho
Nociceptin receptor [3] = target: T1, Nociceptin receptor; details: cho
[4] = target: Delta-type opioid receptor (Homo sapiens, UniProt P41143); details: cho

`NC(=O)C1(c2ccccc2)CC2CCC(C1)N2C(c1ccccc1Cl)c1ccccc1Cl` (centres undefined) gave a pEC50 (Nociceptin receptor [1]) of 8.22, a pKi [2] of 6.57 and a pKi (Nociceptin receptor [3]) of 8.77. The pKi [4] was 5.63.
